## Binding of CDR-mutated scFvs to a peptide of the spike HR2 region

The measurements come from Engelhart et al. 2022 (doi:10.1038/s41597-022-01779-4) through the FLAb antibody collection.

Binding partner: SARS-CoV-2 spike HR2 peptide, sequence PDVDLGDISGINAS.

The variants keep the light chain, the linker and the frameworks of Ab-14 (scFv order VH, three GGGGS repeats, VL).
VH: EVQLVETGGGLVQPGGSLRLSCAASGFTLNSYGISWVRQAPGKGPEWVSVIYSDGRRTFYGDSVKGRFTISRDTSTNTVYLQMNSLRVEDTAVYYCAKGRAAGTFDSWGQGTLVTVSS
VL: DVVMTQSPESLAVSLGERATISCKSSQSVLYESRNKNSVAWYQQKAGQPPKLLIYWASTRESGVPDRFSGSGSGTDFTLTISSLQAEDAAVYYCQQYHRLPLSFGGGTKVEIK

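Phage display of a naive human antibody library on the peptide gave the parent. The library (AAYL49) carries one to three amino acid substitutions per variant, with no insertions or deletions. Affinity was read by AlphaSeq, a pooled yeast mating assay with surface-displayed partners. Pairs that bind mate more often; barcode pairs of the diploids are counted by sequencing. Read counts were normalised to the haploid input and turned into Kd by a linear fit to BCL2-family pairs of known affinity, for each replicate. There are three technical replicates.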

Each variant is given by its three heavy chain CDRs, as the data file delimits them; those of the parent are GFTLNSYGIS, VIYSDGRRTFYGDSVK, GRAAGTFDS.
Affinities are written as log10 Kd with Kd in nM; a lower number is a better binder.
"nd" marks a missing value. The strain was present, yet no cells mated with the target were sequenced in that replicate, which points to weak or no binding.

CDR-H1	CDR-H2	CDR-H3	log10 Kd, replicates	empty controls
GHTLNSYGID	VIYSDGRRTFYWDSVK	GRAAGTFDS	nd / nd / nd	0 of 9
GFTLNSYGIS	VIYSDGRRTFDGDSVK	GRAAGTFDS	4.50 / 3.63 / nd	0 of 9
GFTLNSYGIS	VGYTDGRRCFYGDSVK	GRAAGTFDS	nd / nd / 3.60	1 of 9 (4.83)
GFTLNRYGIS	QIYSDGRRTVYGDSVK	GRAAGTFDS	nd / nd / nd	2 of 9 (4.39)
GFTLSSYGIS	VIYSFGPRTFYGDSVK	GRAAGTFDS	nd / nd / nd	0 of 9
GFTKNSYGIS	VSYSDCRRTFYGDSVK	GRAAGTFDS	6.01 / 3.94 / 4.53	6 of 9 (3.86)
GFTLNSYGIS	VIYWNGRRTFYGDSRK	GRAAGTFDS	nd / nd / nd	0 of 9
GFTGNSYGIS	VIYSDGRRTFQGDSVQ	GRAAGTFDS	nd / nd / nd	0 of 9
GFTLQSYGIW	VIYSDGRRTFYGDSVK	GRAAFTFDS	4.82 / 3.77 / 6.19	8 of 9 (5.01)
GFTLNSYGIS	VIQSDGYRTFCGDSVK	GRAAGTFDS	nd / nd / nd	1 of 9 (2.73)
VFPLNSYGIS	VIYSDGRRTFYGDYVK	GRAAGTFDS	nd / 3.37 / nd	2 of 9 (4.21)
GFTLNSYGAS	VIYSDFRRTFYGDSVK	GRAAGTFDS	nd / 3.41 / nd	2 of 9 (4.34)
GFTLNSYMIS	VLYFDGRRTFYGDSVK	GRAAGTFDS	nd / 3.63 / 4.47	3 of 9 (3.53)
GFTLNSYGIS	VIYSDGQRTFYYDSVK	GFAAGTFDS	nd / nd / nd	0 of 9
GFTLNSYGIS	VIYSDGRRGFYGDSSK	GRAAGPFDS	4.05 / 4.93 / 3.94	4 of 9 (4.52)
GFTLNSYHIS	VIYSDGRRTFYGDSVK	GRAAMTFDS	3.39 / 3.31 / nd	1 of 9 (3.12)
GFTLPPYGIS	VIYSDGRRTFYGDSVK	GRATGTFDS	4.09 / nd / nd	0 of 9
GFTLNSYGIS	VLYSDGRRTFLGDSVK	GRAAGTFDW	nd / nd / nd	0 of 9
GFTLNSEGIS	VIYSDGRRTLYGDSVK	GRAASTFDS	nd / nd / nd	0 of 9
GWTLNSYGIS	VIYSDGWRTFYGYSVK	GRAAGTFDS	nd / nd / nd	0 of 9
GFTLNSYKIS	VMYSDGRRTFYGDSVK	GRAAGTFES	nd / nd / nd	0 of 9
GFTRNSYGIS	VIYSDGRRTFYGSSVK	GRAAGQFDS	nd / nd / nd	0 of 9
GFTLNSYGIS	VIYSDGRRTFWGDSVK	GNAAGPFDS	nd / nd / nd	1 of 9 (3.57)
GFTLNSYGIS	VIYSDGARTFYGDSVK	GPAAGTFMS	2.09 / 2.12 / 2.11	2 of 9 (4.21)
GFTLNSEGIS	VIYGDGRRTFYGDSVK	GRAAGQFDS	nd / 3.34 / nd	3 of 9 (4.55)
GFTLNSYGIS	VIYSDGRRTPYVDSVK	GRAAGHFDS	2.97 / 3.71 / nd	1 of 9 (3.15)
LFTLTSYGIS	VIYSDGRRTFYGDSVK	GRAACTFDS	nd / 5.04 / 3.14	2 of 9 (4.30)
GFTLQSYIIS	VIPSDGRRTFYGDSVK	GRAAGTFDS	nd / nd / 2.46	0 of 9
GKTLNSGGIS	VIYSDGRRTFYGDSVK	GRAAGTFMS	nd / 3.57 / 5.25	3 of 9 (4.64)
GFTHNSYGIS	VIYSDVRRNFYGDSVK	GRAAGTFDS	nd / nd / nd	1 of 9 (2.48)
GFTFNSYGIS	VIYSDGRRTFYGDSVK	VRAAGTFSS	1.72 / 2.06 / 1.83	0 of 9
GFTLNSMGIS	VIYSDGSRTFYGDSVK	GRAAWTFDS	0.88 / 1.02 / 0.98	0 of 9
GHTLNSYGLS	VIYSDGRRTFYGDSVK	GRAAGTYDS	nd / nd / nd	0 of 9
GIPLNSYGIS	VIYSDGRRTFYGDSVK	GYAAGTFDS	1.39 / 1.62 / 1.36	1 of 9 (3.43)
GFTCNSYGIS	VIYSDGRRTFYGDSVK	GRAAGYFSS	3.49 / nd / 2.87	3 of 9 (4.26)
GFTLNSYGIS	VQYSDGRRTFLGDSVK	GVAAGTFDS	4.44 / nd / 4.35	2 of 9 (5.00)
GFSLASYGIF	VIYSDGRRTFYGDSVK	GRAAGTFDS	nd / 3.68 / nd	1 of 9 (3.73)
GFTGNSYGIS	VIYSDGRLTFYGDSVK	GRAAGTVDS	nd / nd / nd	1 of 9 (4.39)
GFLLKSYGIS	VIYSDGSRTFYGDSVK	GRAAGTFDS	2.70 / 1.95 / 2.71	0 of 9

Excerpt, the first 4 entries:

CDR-H1	CDR-H2	CDR-H3	log10 Kd, replicates	empty controls
GHTLNSYGID	VIYSDGRRTFYWDSVK	GRAAGTFDS	nd / nd / nd	0 of 9
GFTLNSYGIS	VIYSDGRRTFDGDSVK	GRAAGTFDS	4.50 / 3.63 / nd	0 of 9
GFTLNSYGIS	VGYTDGRRCFYGDSVK	GRAAGTFDS	nd / nd / 3.60	1 of 9 (4.83)
GFTLNRYGIS	QIYSDGRRTVYGDSVK	GRAAGTFDS	nd / nd / nd	2 of 9 (4.39)

Nonspecific signal, from three strains lacking the peptide, appeared in 15% of pairings of library AAYL49, centred on 4.06 (5% of these signals below 2.83); values are not corrected for it. Also given: how often the same scFv was detected with the empty control strains, with their mean in brackets.